Test results taken from patent US20250223317A1, “KEAP1 INHIBITING PROTEIN-LIKE POLYMERS” (NORTHWESTERN UNIVERSITY, priority 2022, published 2025).

The chains behind the UniProt entries cited, without tags or fusion partners. Residues count along the entry.
UniProt Q14145, whole entry: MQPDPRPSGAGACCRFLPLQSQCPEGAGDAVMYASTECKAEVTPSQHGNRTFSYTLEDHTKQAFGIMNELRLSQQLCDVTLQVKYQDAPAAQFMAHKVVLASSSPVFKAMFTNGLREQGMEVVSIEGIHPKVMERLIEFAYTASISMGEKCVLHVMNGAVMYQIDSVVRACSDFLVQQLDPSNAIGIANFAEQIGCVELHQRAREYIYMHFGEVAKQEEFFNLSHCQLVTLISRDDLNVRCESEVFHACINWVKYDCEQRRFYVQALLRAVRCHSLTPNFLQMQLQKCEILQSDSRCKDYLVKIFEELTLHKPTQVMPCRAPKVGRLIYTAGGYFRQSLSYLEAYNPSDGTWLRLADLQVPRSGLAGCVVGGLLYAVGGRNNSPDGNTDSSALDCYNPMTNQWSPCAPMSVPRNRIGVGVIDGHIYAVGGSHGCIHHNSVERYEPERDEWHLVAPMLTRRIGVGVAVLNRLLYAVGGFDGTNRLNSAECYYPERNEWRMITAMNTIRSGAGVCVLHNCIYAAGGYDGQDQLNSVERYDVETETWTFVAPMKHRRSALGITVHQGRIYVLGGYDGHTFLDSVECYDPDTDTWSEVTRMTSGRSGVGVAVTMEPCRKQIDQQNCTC
UniProt Q14145, 321-609 limits assumed: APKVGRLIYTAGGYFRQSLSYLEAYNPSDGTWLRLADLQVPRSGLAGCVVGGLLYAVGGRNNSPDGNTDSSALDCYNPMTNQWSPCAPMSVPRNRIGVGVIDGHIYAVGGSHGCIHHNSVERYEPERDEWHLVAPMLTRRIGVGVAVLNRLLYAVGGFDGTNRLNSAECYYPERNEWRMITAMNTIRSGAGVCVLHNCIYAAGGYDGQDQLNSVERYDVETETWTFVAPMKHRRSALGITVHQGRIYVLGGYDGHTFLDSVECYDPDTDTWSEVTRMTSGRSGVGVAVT

B1: polynorbornene dicarboxyimide-based brush block copolymer of SEQ ID NO: 2 (DLG) and SEQ ID NO: 150 (ETGE), DLG:ETGE ratio 8:8 (peptide)
peptide 1: RQDIDLGVSRR
peptide 2: LDPETGEFLRRRR
modifications: N-terminus amide-coupled to N-(hexanoic acid)-cis-5-norbornene-exo-dicarboximide, which is polymerised into the backbone (block B); N-terminus amide-coupled to N-(hexanoic acid)-cis-5-norbornene-exo-dicarboximide, which is polymerised into the backbone (block A)

Tests used:
[1] = system: Antioxidant Response Element (ARE); assay: ARE luciferase reporter assay (ARE activation); format: cell-based; settings: 0 μM to 10 μM, 24 hours post-treatment
human recombinant Keap1 = molecular target: T1, human recombinant Keap1 (Homo sapiens, UniProt Q14145); assay: Fluorescence polarization Keap1 binding assay (percent FAM-Nrf2 binding); settings: Example 14
T1 construct: purchased BPS bioscience, San Diego, CA
Description: The polynorbornene dicarboxyimide-based brush homopolymers were assessed for Keap1/Nrf2 disruption using a competitive inhibition screening assay that uses labeled Nrf2 peptide (FAM-[…]) and human recombinant Keap1 (BPS bioscience, San Diego, CA). The assay was carried out according to established protocols. Briefly, test inhibitors (n=3) were added at varying concentrations to wells of a black 96-well plate along with assay buffer, BSA, FAM-Nrf2, and Keap1 and allowed to incubate for 30 minutes at room temperature. […] Blank control was assay buffer and inhibitor vehicle. Nrf2 negative binding control included assay buffer, BSA, FAM-Nrf2, and inhibitor vehicle. Nrf2 positive binding control included assay buffer, BSA, FAM-Nrf2, inhibitor vehicle and Keap1. Data was assessed for IC50 values by quantifying percent Nrf2 activity relative to inhibitor concentration by fitting to a nonlinear model for a dose response (absolute IC50) using Prism 9. […]
The polynorbornene dicarboxyimide-based brush homopolymer and copolymers were assessed for Keap1/Nrf2 disruption using a competitive inhibition screening assay that uses labeled Nrf2 peptide (FAM-[…]) and human recombinant Keap1 (BPS bioscience, San Diego, CA). […] Data was assessed for IC50 values by quantifying percent Nrf2 activity relative to inhibitor concentration by fitting to a nonlinear model for a dose response (absolute IC50) using Prism 9.

[2] = molecular target: Kelch domain labeled with biotin (bound to streptavidin-europium energy donor) (UniProt Q14145); assay: TR-FRET competition with AF647-… on biotin-labeled Kelch domain

Molecule	ARE activation (relative luminescence) [1]	competition with the labeled Nrf2 peptide (FAM-LDEETGEFL) at concentrations less than 100 nM (human recombinant Keap1)	IC50 [2] [µM]
DLG Homopolymer (RQDIDLGVSRR)	does not activate alone	does not out compete	
B1			388
